Test results published in patent EP0417987B1, “Fabric softening” (UNILEVER PLC, priority 1989, dated 1991).

Assay: pKa of amine softening materials (titration curve of a 1% dispersion with acid)
Assay type: physicochemical
Conditions: amine softening material
Excerpt: The pKa value is a well-known parameter related to the protonation of materials. For a certain amine material the pKa can be determined by considering the protonation reaction of the amine material: amine + H⁺ -------- amineH⁺ The pKa of the amine is the pH value, at which the amount of unprotonated amine is equal to the amount of protonated amine. […]

Substance: dihardened tallow methyl amine [Armeen M2HT]
- pKa: 4.5
